{
  "source": "patent US8338425B2",
  "about": "“Heterocyclic kinase inhibitors” (Concert Pharmaceuticals, Inc., priority 2007, dated 2012)",
  "experiment": "Human liver microsome (HLM) metabolic stability assay",
  "format": "in vitro ADME",
  "details": "pooled human liver microsomes, HLM 0.5 mg/mL, test compound 0.5 μM, NADPH, 37° C., 0-30 minutes, Experiment 2, read-out: t1/2 (min) Experiment 2",
  "procedure": "Microsomal Assay: Human liver microsomes (20 mg/mL) were obtained from Xenotech, LLC (Lenexa, Kans.). β-nicotinamide adenine dinucleotide phosphate, reduced form (NADPH), magnesium chloride (MgCl2), and dimethyl sulfoxide (DMSO) were purchased from Sigma-Aldrich. The incubation mixtures were prepared according to Table 2:\nDetermination of Metabolic Stability: Two aliquots of this reaction mixture were used for a compound of this invention. The aliquots were incubated in a shaking water bath at 37° C. for 3 minutes. The test compound was then added into each aliquot at a final concentration of 0.5 μM. The reaction was initiated by the addition of cofactor (NADPH) into one aliquot (the other aliquot lacking NADPH served as the negative control). Both aliquots were then incubated in a shaking water bath at 37° C. […]\nData analysis: The in vitro half-lives (t1/2s) for test compounds were calculated from the slopes of the linear regression of % parent remaining (ln) vs incubation time relationship. in vitro t1/2=0.693/k […]\nThe metabolic stability of compounds of Formula I was tested using pooled liver microsomal incubations. […] Samples of the test compounds, exposed to pooled human liver microsomes, were analyzed using HPLC-MS (or MS/MS) detection. […]",
  "data": [
    {"smiles": "[2H]C([2H])(O)CN1CCN(c2cc(Nc3ncc(C(=O)Nc4c(Cl)cccc4C([2H])([2H])[2H])s3)nc(C)n2)CC1", "note": "[Compound 101, N-(2-Chloro-6-(methyl-d3)phenyl)-2-(6-(4-(2,2-d2-2-hydroxyethyl)piperazin-1-yl)-2-methylpyrimidin-4-ylamino)thiazole-5-carboxamide]", "values": [
      {"measurement": "half-life at 0.5 μM", "value": 18, "unit": "min"}
    ]}
  ]
}
